Among the data in PubChem BioAssay AID1224863 (Southern Research Institute, 2016) are viability, fold increase and outcome values, retold here.

By UniProt entry, the sequences of proteins in these tests, tags left out. Chains listed by the source or under a name are the forms on record and can include a tag or linker.
UniProt P13569, with tags, fused parts or gaps F508del: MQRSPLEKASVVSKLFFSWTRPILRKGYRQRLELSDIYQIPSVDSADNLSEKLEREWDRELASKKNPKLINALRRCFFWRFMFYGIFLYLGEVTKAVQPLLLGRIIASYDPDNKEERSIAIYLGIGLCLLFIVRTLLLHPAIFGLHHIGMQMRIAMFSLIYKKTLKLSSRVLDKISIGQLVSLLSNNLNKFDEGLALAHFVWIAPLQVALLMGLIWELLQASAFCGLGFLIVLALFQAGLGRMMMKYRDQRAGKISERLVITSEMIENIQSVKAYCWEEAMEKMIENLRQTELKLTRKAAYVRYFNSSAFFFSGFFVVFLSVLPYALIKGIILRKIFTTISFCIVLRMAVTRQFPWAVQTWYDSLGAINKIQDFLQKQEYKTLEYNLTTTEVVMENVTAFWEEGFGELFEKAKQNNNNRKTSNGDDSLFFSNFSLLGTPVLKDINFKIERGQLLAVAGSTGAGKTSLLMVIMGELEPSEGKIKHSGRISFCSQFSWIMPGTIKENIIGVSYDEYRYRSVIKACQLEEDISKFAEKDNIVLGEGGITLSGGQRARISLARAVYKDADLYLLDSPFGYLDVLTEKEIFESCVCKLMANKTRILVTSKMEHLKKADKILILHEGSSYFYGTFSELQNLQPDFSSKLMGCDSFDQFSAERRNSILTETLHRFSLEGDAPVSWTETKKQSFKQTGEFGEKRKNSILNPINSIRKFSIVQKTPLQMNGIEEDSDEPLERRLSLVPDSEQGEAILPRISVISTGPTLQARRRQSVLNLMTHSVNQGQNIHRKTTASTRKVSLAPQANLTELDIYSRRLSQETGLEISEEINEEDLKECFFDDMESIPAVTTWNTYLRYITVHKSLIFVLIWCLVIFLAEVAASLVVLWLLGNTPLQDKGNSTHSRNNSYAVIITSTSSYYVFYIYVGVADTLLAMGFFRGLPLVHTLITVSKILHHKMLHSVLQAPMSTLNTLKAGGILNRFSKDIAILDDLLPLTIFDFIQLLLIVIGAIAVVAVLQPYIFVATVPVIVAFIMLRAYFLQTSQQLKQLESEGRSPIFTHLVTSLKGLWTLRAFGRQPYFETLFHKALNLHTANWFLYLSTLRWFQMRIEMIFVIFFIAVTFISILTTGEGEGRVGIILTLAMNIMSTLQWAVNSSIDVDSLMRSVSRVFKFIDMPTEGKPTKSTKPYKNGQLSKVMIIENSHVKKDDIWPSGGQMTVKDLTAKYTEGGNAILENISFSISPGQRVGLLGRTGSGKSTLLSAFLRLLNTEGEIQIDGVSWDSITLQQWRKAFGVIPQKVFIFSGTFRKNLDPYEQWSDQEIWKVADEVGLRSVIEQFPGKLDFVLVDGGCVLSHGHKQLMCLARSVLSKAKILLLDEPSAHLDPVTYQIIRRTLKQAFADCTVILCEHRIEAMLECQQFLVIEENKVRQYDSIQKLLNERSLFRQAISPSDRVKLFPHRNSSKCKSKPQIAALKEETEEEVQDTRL

Each structure is given as a SMILES string. Out of some 10,000 compounds screened, about 15 (0.1%) were called active.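 How the source made its calls: active means highest signal at least 8 times the median of untreated cell-only control wells at some dose; inactive means the rest.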 These entries were drawn from the full list.

The viability is a read-out of living cells in per cent, often relative to untreated cells.

The nature of test [1]: total CFTR protein upregulators, primary screen, cell-based, HeLa F508del-CFTR, immunofluorescence, viability (AID 1224863).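 On fold increase: total CFTR protein by anti-CFTR immunofluorescence in fixed cells.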 To be noted: 24 h, stronger effect = higher value; min viability: measured here: HeLa viability, alamarBlue, dose 20, library dosed in µg/mL unless noted; viability: measured here: primary viability 10 ug/mL, library dosed in µg/mL unless noted.
Test [2] concerns the target Cystic fibrosis transmembrane conductance regulator (Homo sapiens) (UniProt P13569). Described as above. To be noted: 24 h; fold increase: measured here: primary screen 10 ug/mL, library dosed in µg/mL, stronger effect = higher value unless noted; max fold increase: dose 10, library dosed in µg/mL, stronger effect = higher value unless noted; outcome: library dosed in µg/mL unless noted.

With `FC(F)(F)c1cnc(Nc2ccc3c(c2)OCCO3)c(Cl)c1`, the viability in test [1] was found to be 81%. Further, in test [2], the fold increase was found to be 0.98 and the result was inactive.

Consider `CC1CCC2(CC1)NC(=O)N(CN1CCC(C(=O)c3ccc4c(c3)OCCO4)CC1)C2=O` (centres undefined), for which, in test [1], the viability worked out at 97%. Besides, in test [2], the fold increase was found to be 1.04 and the outcome was inactive.

Consider `O=C(OCCOc1ccc(Br)cc1)C1(c2cccc(F)c2)CCCC1`, for which, in test [1], the viability came out at 77%. In addition, in test [2], the fold increase worked out at 0.97 and the molecule was called inactive.

`C=CCn1c(C)cc(-c2csc(NC(=O)C3CC3)n2)c1C`: the viability in test [1] came out at 93%. Besides, in test [2], the fold increase worked out at 1.02 and the molecule was classed as inactive.

Regarding `Cn1cc(C#N)c(=O)n(CC(=O)Nc2sccc2C(N)=O)c1=O`, in test [1], the viability turned out to be 104%. For the same molecule, in test [2], the fold increase was 1.07 and the call was inactive.

Consider `O=S(=O)(Nc1ccc(Cl)c(S(=O)(=O)N2CCOCC2)c1)c1ccc2ccccc2c1`, for which, in test [1], the viability is 93%. Besides, in test [2], the fold increase is 1.11 and the molecule was classed as inactive.

With `Cc1cc(C(=O)COc2cc(C(F)(F)F)cc(C(F)(F)F)c2)c(C)n1Cc1ccc2c(c1)OCO2`, the viability in test [1] was 90%. Also, in test [2], the fold increase was found to be 1.11 and the result was inactive.

With `CCCCOCCCNS(=O)(=O)c1ccc(S(=O)(=O)C(F)F)cc1`, the viability in test [1] worked out at 80%. In test [2], the fold increase is 0.94 and the outcome was inactive.

For the molecule `Cc1ccsc1C(=O)N1CCN(S(=O)(=O)N(C)C2CCCCC2)CC1`, the viability in test [1] came to 83%. Also, in test [2], the fold increase came out at 0.92 and the call was inactive.

`O=C1c2ccccc2C(O)(c2ccc(Cl)cc2)N1CCSCc1ccco1` (centres undefined): the viability in test [1] was 77%. Further, in test [2], the fold increase came out at 0.9 and the result was inactive.

As to `Cn1cc(S(=O)(=O)NC2(c3ccc4c(c3)OCCO4)CCCC2)c(=O)n(C)c1=O`, the viability in test [1] was found to be 94%. In test [2], the fold increase turned out to be 1.05 and the call was inactive.

`O=C(NC1CCCCCC1)C1CC=CCC1` (centres undefined): the viability in test [1] came out at 96%. Besides, in test [2], the fold increase was 1.02 and the outcome was inactive.

Regarding `O=c1c2ccccc2nnn1COc1ccccc1Cl`, the viability in test [1] stood at 116%. Also, in test [2], the fold increase came to 0.98 and the molecule was classed as inactive.

For the molecule `CCOCCSc1nnc(-c2ccccc2)n1C`, the viability in test [1] turned out to be 106%. Also, in test [2], the fold increase came to 1.04 and the molecule was classed as inactive.

As to `Fc1ccc2sc(CNc3ccc4nnnn4n3)cc2c1`, the viability in test [1] amounted to 105%. In test [2], the fold increase came out at 1.2 and the result was inactive.

With `CCN(CC)C(=O)C(C)NC(=O)c1c(C)oc(-n2cccc2)c1C#N` (centres undefined), the viability in test [1] came out at 90%. In addition, in test [2], the fold increase worked out at 0.95 and the molecule was classed as inactive.

On to `Cc1noc(C)c1CN1CCCC(NS(C)(=O)=O)C1` (centres undefined), for which the viability in test [1] worked out at 110%. Moreover, in test [2], the fold increase was 1.04 and the molecule was called inactive.

Turning to `CC(C)n1nnnc1SCc1ccc([N+](=O)[O-])cc1`, in test [1], the viability is 91%. For the same molecule, in test [2], the fold increase was found to be 0.94 and the result was inactive.

Turning to `Clc1ccc(CN2CCN(c3ccc(Br)cn3)CC2)s1`, the viability in test [1] came to 105%. In test [2], the fold increase is 1.02 and the result was inactive.

`O=C(NCCc1ccccc1F)NC1CCSc2ccccc21` (centres undefined): the viability in test [1] was determined as 95%. In test [2], the fold increase stood at 1.02 and the call was inactive.

Consider `COc1ccccc1-c1noc(CSC23CC4CC(CC(C4)C2)C3)n1`, for which, in test [1], the viability turned out to be 70%. Moreover, in test [2], the fold increase is 0.79 and the result was inactive.

In the case of `O=S(=O)(Nc1ccc2c(c1)OCCO2)c1cc(F)cc(F)c1`, the viability in test [1] was determined as 97%. For the same molecule, in test [2], the fold increase was found to be 0.92 and the outcome was inactive.

Turning to `O=C(NCCc1ccc2c(c1)OCCO2)NCc1cccnc1OC1CCCC1`, the viability in test [1] turned out to be 91%. Also, in test [2], the fold increase amounted to 0.85 and the call was inactive.

As for `CCC1CCC2(CC1)NC(=O)N(CC(=O)NCC1CCCO1)C2=O` (centres undefined), the viability in test [1] is 102%. For the same molecule, in test [2], the fold increase is 0.98 and the result was inactive.

With `Cc1[nH]c2ccccc2c1C(=O)C(C)OC(=O)C12CC3CC(C1)CC(c1ccccc1)(C3)C2` (centres undefined), the viability in test [1] stood at 85%. Further, in test [2], the fold increase was 0.91 and the outcome was inactive.

For `CC(C)c1ccc(C(NC(=O)CN2C(=O)NC(C)(c3ccc4c(c3)OCO4)C2=O)C(C)C)cc1` (centres undefined), the viability in test [1] is 81%. Besides, in test [2], the fold increase amounted to 0.84 and the molecule was called inactive.

Regarding `Cn1nnn(CN2CCN(c3ccccc3)CC2)c1=S`, the viability in test [1] was 101%. For the same molecule, in test [2], the fold increase is 1.1 and the call was inactive.

For `CNc1nnc(Sc2nc3cc(C)nn3c3ccccc23)s1`, in test [1], the viability came out at 97%. In test [2], the fold increase is 1.1 and the outcome was inactive.

As to `CN(CC(=O)NC(=O)NCCC1=CCCCC1)Cc1ccc(Cl)s1`, the viability in test [1] was 85%. Further, in test [2], the fold increase stood at 0.92 and the molecule was called inactive.

With `C#CCOc1ccc(CNC(C)c2ccc(Br)cc2)cc1OCC` (centres undefined), the viability in test [1] amounted to 76%. In addition, in test [2], the fold increase was 0.94 and the result was inactive.

Consider `CN(Cc1ccccc1Cl)Cn1ncn(-c2cccc(Cl)c2)c1=S`, for which the viability in test [1] worked out at 105%. Further, in test [2], the fold increase was 1.04 and the molecule was classed as inactive.

Turning to `Cn1ccnc1COc1ccc(C(=O)O)cc1`, the viability in test [1] turned out to be 89%. In test [2], the fold increase was found to be 1.02 and the result was inactive.

As for `Cc1cc(-c2nccn2C)c(=O)[nH]n1`, in test [1], the viability was determined as 99%. Also, in test [2], the fold increase was 1.08 and the molecule was called inactive.

As for `Cc1cc(NC(=O)N2CCN(C(=O)OC(C)(C)C)CC2)no1`, the viability in test [1] came out at 102%. Further, in test [2], the fold increase came to 1.12 and the call was inactive.

On to `CC(C)CN1C(=O)c2ccc([N+](=O)[O-])cc2C1=O`, for which, in test [1], the viability was 88%. Also, in test [2], the fold increase was determined as 0.89 and the molecule was classed as inactive.

On to `O=C1NC2(CCCCCC2)C(=O)N1CN1CCCCCCC1`, for which, in test [1], the viability turned out to be 76%. Further, in test [2], the fold increase is 0.99 and the molecule was called inactive.

`Cc1cccc2nc(CSc3ccc4ccccc4n3)cc(=O)n12`: the viability in test [1] was determined as 83%. In test [2], the fold increase was found to be 1.04 and the result was inactive.

Consider `O=[N+]([O-])c1cn(Cc2cn(-c3ccccc3)nc2-c2ccc(Cl)cc2)cn1`, for which, in test [1], the viability amounted to 103%. Also, in test [2], the fold increase came out at 1.3 and the result was inactive.

In the case of `O=C(COc1cc(Cl)c(Cl)cc1Cl)N1CCN(C(=O)C2CCCO2)CC1` (centres undefined), the viability in test [1] was 99%. In test [2], the fold increase worked out at 0.97 and the molecule was classed as inactive.

On to `CCN(CC)S(=O)(=O)c1ccc(S(=O)(=O)Nc2nc3ccccc3nc2N2CCCC2)cc1`, for which the viability in test [1] is 92%. In addition, in test [2], the fold increase was 1.04 and the molecule was classed as inactive.

For the molecule `Cc1nnc(COC(=O)C2=Cc3ccccc3OC2)o1`, in test [1], the viability came out at 102%. In addition, in test [2], the fold increase worked out at 1.03 and the outcome was inactive.

Consider `CN(C)C(=O)c1ccc(N2CCOC2=O)cc1`, for which, in test [1], the viability was found to be 97%. In test [2], the fold increase was found to be 0.98 and the call was inactive.

Regarding `CCCCn1c(N)c(N(C)C(=O)CCS(=O)(=O)CC(C)C)c(=O)[nH]c1=O`, in test [1], the viability turned out to be 103%. In test [2], the fold increase came out at 1 and the call was inactive.

For `CN1CCC(CNC(=O)C23CC4CC(CC(Cl)(C4)C2)C3)c2ccccc21` (centres undefined), the viability in test [1] amounted to 77%. Moreover, in test [2], the fold increase stood at 1.08 and the molecule was called inactive.

For `CC(c1nc2ccccc2s1)N(C)CN1C(=O)C2CC=CCC2C1=O` (centres undefined), the viability in test [1] is 91%. In test [2], the fold increase stood at 1.02 and the molecule was called inactive.

As to `COC(=O)/C=C/c1ccc(OCC(=O)c2ccc(OC(F)F)cc2)c(OC)c1`, the viability in test [1] amounted to 94%. Moreover, in test [2], the fold increase was 1.05 and the result was inactive.

For `CCOc1c(Br)cc(CNC(C)C2CCCO2)cc1Br` (centres undefined), the viability in test [1] turned out to be 99%. In test [2], the fold increase was determined as 1.09 and the molecule was called inactive.

For the molecule `Cc1cc(C(C)(C)C)ccc1Oc1ccc2nnnn2n1`, the viability in test [1] turned out to be 71%. In addition, in test [2], the fold increase stood at 1 and the outcome was inactive.
